Molecular target: Neuropeptide Y receptor type 2 (Rattus norvegicus, UniProt Q9ERC0)
Assay: 50% displacement of specifically bound [3H]NPY2 from rat brain membranes.
Assay type: cell membranes, Membrane

The chains behind the UniProt entries cited, without tags or fusion partners.
UniProt Q9ERC0, whole entry: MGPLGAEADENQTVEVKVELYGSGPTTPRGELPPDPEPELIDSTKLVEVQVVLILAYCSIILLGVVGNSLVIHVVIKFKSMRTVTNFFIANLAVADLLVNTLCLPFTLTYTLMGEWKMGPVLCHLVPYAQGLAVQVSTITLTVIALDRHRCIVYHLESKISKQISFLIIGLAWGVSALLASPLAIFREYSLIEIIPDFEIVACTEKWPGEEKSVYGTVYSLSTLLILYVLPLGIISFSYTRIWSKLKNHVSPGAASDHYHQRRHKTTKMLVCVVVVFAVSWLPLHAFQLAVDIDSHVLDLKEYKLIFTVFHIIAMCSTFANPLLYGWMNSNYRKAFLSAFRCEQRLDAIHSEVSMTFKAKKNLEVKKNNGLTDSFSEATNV

CSCC[C@H](NC(=O)[C@@H](N)Cc1ccccc1)C(=O)N[C@@H](CCCN=C(N)N)C(=O)N[C@@H](Cc1ccccc1)C(N)=O
IC50: 40 µM

From ChEMBL document CHEMBL1128283, “Novel modified carboxy terminal fragments of neuropeptide Y with high affinity for Y2-type receptors and potent functional antagonism at a Y1-type receptor” (J Med Chem, 1995)
